This is a selection; strong and weak results do not stand in their true shares. Potency and affinity values are given separately. The source made the active and inactive calls. Rule as the data show it: active = inhibition above about 50%; inactive = the rest.

Sequences of proteins named here, by UniProt entry; tags and fusion partners are left off.
UniProt Q64346, whole entry: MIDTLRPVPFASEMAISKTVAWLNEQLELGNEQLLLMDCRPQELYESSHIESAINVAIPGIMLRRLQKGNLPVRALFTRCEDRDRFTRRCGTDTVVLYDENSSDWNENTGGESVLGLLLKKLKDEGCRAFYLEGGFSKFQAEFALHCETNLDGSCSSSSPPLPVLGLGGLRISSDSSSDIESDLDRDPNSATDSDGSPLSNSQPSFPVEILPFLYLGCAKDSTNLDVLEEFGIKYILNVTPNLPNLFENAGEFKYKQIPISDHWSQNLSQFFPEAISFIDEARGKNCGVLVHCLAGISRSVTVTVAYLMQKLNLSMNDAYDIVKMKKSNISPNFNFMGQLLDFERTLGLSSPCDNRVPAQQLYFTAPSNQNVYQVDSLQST

The target in this experiment is Dual specificity protein phosphatase 6 (Rattus norvegicus) (UniProt Q64346). The experiment can be described thus: inhibition of rat DUSP6 enzyme activity – biochemical, in vitro, primary screen (AID 425).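 Also: plate controls were vehicle for no effect and reference inhibitor for full effect.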 To be noted: recombinant MKP-3 phosphatase activity, fluorescence; at 20 µM; active compounds read high.
The inhibition is the drop in the measured response relative to a control, in per cent. On to `N#CC1(Nc2ccccc2)CCN(CCc2ccccc2)CC1`, for which the inhibition is inactive: -1.9%.

Take `COc1ccc(NC2CCN(CCc3ccccc3)CC2)c(OC)c1`: the inhibition is inactive: -6.9%.

Turning to `O=C(OC1CN2CCC1CC2)C1c2ccccc2Oc2ccccc21` (configuration not stated), the inhibition is inactive: -12.6%.

Consider `CCOc1ncccc1C(=O)NCC1(N2CCOCC2)CCCCC1`, for which the inhibition is inactive: -4.6%.

Take `CCC(CO)(C(=O)OC1CN2CCC1CC2)c1ccccc1` (configuration not stated): the inhibition was inactive: -8.2%.

Take `Fc1ccccc1NC1CCN(Cc2ccccc2)CC1`: the inhibition was inactive: -7.1%.

On to `N/C(=N\O)c1c(N)no[n+]1[O-]`, for which the inhibition was inactive: -7%.

Values taken from PubChem BioAssay AID425 (Sanford-Burnham Center for Chemical Genomics, 2006).
